Apparent affinities of Ab-91 variants for a coronavirus HR2 peptide

Target: peptide PDVDLGDISGINAS, taken from heptad repeat 2 (HR2) of SARS-CoV-2 spike.

Parent scFv Ab-91: VL joined to VH by a (GGGGS)3 linker. Changes lie in the heavy chain CDRs alone.
VL: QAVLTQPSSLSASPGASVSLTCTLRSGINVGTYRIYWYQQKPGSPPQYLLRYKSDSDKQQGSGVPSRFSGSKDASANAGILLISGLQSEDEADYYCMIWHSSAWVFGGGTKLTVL
VH: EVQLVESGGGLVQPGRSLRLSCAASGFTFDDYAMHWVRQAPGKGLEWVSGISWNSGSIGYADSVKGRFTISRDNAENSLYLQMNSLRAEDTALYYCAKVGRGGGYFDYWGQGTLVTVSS

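Library AAYL51 holds single substitutions and randomly drawn double and triple substitutions in the CDRs. Affinity was read by AlphaSeq, a pooled yeast mating assay with surface-displayed partners. Pairs that bind mate more often; barcode pairs of the diploids are counted by sequencing. The ratio of observed to expected reads was calibrated, replicate by replicate, on BCL2-family standards whose Kd was known from biolayer interferometry. The assay was run in three technical replicates.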

Variants are written as CDR1, CDR2 and CDR3 of the heavy chain (limits as in the source). Parent: GFTFDDYAMH, GISWNSGSIGYADSVK, VGRGGGYFDY.
All variants listed here change M34 of the VH, counted from its first residue.
The Kd shown is the geometric mean over detected replicates; a lower Kd is a better binder.
"nd" marks a missing value. The strain was present, yet no cells mated with the target were sequenced in any replicate, which points to weak or no binding.
Entries are sorted by rising average, undetected variants last.
Background: pairings of library AAYL51 with three empty control strains gave a value in 21% of cases (median 34 µM, 5th percentile 1.8 µM). Values in that range, when seen in few replicates, are hard to tell from nonspecific mating. The control count says in how many pairings with the empty strains this scFv gave a signal.

* GFTFDDYAPH | GISWNSGSIGYADSAK | VGRGGGYFDY: 17 nM (3 of 3 replicates; controls 4 of 9)
* GFTFDDYAFH | GISWNSGSIGYADAVK | VGRGGGYFDV: 18 nM (3 of 3 replicates; controls 3 of 9)
* GFTFDDYACH | GISWNSGSIGYADSVK | QSRGGGYFDY: 540 nM (1 of 3 replicates; controls 1 of 9)
* GFTFDDYAQH | GISWNSGLIGYADSVK | VGRGGGYFDY: 2.9 µM (1 of 3 replicates; controls 4 of 9)
* GFTFDDYADH | GISWNDGSIGWADSVK | VGRGGGYFDY: 3.2 µM (1 of 3 replicates; controls 1 of 9)
* GFTFDDYARH | GIAWNSGFIGYADSVK | VGRGGGYFDY: 4.6 µM (1 of 3 replicates; controls 0 of 9)
* GFTFDDYADH | GISWNSGSIGKADPVK | VGRGGGYFDY: 4.8 µM (1 of 3 replicates; controls 0 of 9)
* GFTFDDYACH | GISWNSGSIGYADSVI | VGRTGGYFDY: 7.3 µM (1 of 3 replicates; controls 1 of 9)
* GITFDDYAHF | GISWNSGSIGYADSVK | VGRGGGYFDY: 20 µM (3 of 3 replicates; controls 2 of 9)
* GFAFDDYATH | GISWNSGSIGYADSVK | VGRGDGYFDY: 28 µM (1 of 3 replicates; controls 2 of 9)
* GFTFDDYAKH | GISWNSGSIRYADSVK | VGAGGGYFDY: 28 µM (1 of 3 replicates; controls 4 of 9)
* GFTFDDYACH | GIMHNSGSIGYADSVK | VGRGGGYFDY: 32 µM (1 of 3 replicates; controls 2 of 9)
* GFTFDDYMNH | GISWNSYSIGYADSVK | VGRGGGYFDY: 35 µM (2 of 3 replicates; controls 1 of 9)
* GFTFDDYAHH | GISWNSGSIGYADSVK | VGRWGHYFDY: 36 µM (3 of 3 replicates; controls 4 of 9)
* GFTFDDYAWH | GISWNSGSIGYADSVR | PGRGGGYFDY: 37 µM (1 of 3 replicates; controls 4 of 9)
* GFTFDDYAQH | WISWNSGSIGYADSVK | VGRGGGYFDY: 46 µM (2 of 3 replicates; controls 4 of 9)
* GFTFDDYAYH | GISWNSASIGYADSVK | VGRGGGYFDF: 72 µM (2 of 3 replicates; controls 4 of 9)
* GFTFDDYFNF | GISWNSGSIGYADSVK | VGRGGGYFDY: 78 µM (2 of 3 replicates; controls 5 of 9)
* GFTFLDYAWH | GISWNSGMIGYADSVK | VGRGGGYFDY: 83 µM (1 of 3 replicates; controls 3 of 9)
* GFTFDDYALH | GISWNSGSIGYVDSVK | EGRGGGYFDY: 100 µM (3 of 3 replicates; controls 4 of 9)
* GFTFDDYASH | GISWNSGSIGYADSVK | VGRGGGWQDY: 110 µM (2 of 3 replicates; controls 5 of 9)
* GFTFWDYWYH | GISWNSGSIGYADSVK | VGRGGGYFDY: 160 µM (1 of 3 replicates; controls 0 of 9)
* GFTFDDYALH | GISWNDGSIGYADSVK | VGAGGGYFDY: 170 µM (1 of 3 replicates; controls 1 of 9)
* GFTFDDYASI | GISWNSGSIGYADSVK | VFRGGGYFDY: 230 µM (1 of 3 replicates; controls 1 of 9)
* GFTFDDYAKH | GISWNSGSPGYPDSVK | VGRGGGYFDY: 330 µM (1 of 3 replicates; controls 2 of 9)
* MFTFDDYACH | GISWNSGSIGYADSVK | VGRGGGYFEY: 370 µM (3 of 3 replicates; controls 3 of 9)
* GFTFDSYALH | GISWNSGSIGYADSVK | VGRGGKYFDY: 2.3 mM (1 of 3 replicates; controls 2 of 9)
* GFTFDDYAKH | GISWNSGSIGYADSVK | VGMQGGYFDY: 2.9 mM (1 of 3 replicates; controls 2 of 9)
* GFTVDDGALH | GISWNSGSIGYADSVK | VGRGGGYFDY: nd (0 of 3 replicates; controls 1 of 9)
* GFTFDDYAVH | GISWNSGSIKMADSVK | VGRGGGYFDY: nd (0 of 3 replicates; controls 1 of 9)
* GFTFDDYAFH | GISWSSGSIGYADSVK | VGRGGGYFDY: nd (0 of 3 replicates; controls 2 of 9)
* GFTFDDYAFH | FISWNSGSIGYADSVK | CGRGGGYFDY: nd (0 of 3 replicates; controls 1 of 9)
* GFTFDDYAKH | GISNNSGSIGTADSVK | VGRGGGYFDY: nd (0 of 3 replicates; controls 0 of 9)
* GFTFDDYAGH | GIQWNSGSIGNADSVK | VGRGGGYFDY: nd (0 of 3 replicates; controls 2 of 9)
* GFTFDDYAEH | GISWNSGSIPYADSVK | VGRGEGYFDY: nd (0 of 3 replicates; controls 1 of 9)
* GFTFDDYAWH | GISWNSGSIGYHDSVK | VGRGGGYADY: nd (0 of 3 replicates; controls 0 of 9)
* GFTFDDYAHH | GISWNKGSIGYAVSVK | VGRGGGYFDY: nd (0 of 3 replicates; controls 0 of 9)
* GFTFDDYADH | GISWNSGSIGYADSVK | CGRGGGYFRY: nd (0 of 3 replicates; controls 0 of 9)
* GFTFDDYAYH | GISWNSGTIGYADSVK | VGRGGGNFDY: nd (0 of 3 replicates; controls 2 of 9)
* GFTFDDYAIH | GIEWNSGSIGWADSVK | VGRGGGYFDY: nd (0 of 3 replicates; controls 1 of 9)
* GFTFDDYAWH | GISWNSGSIGYDDSVK | DGRGGGYFDY: nd (0 of 3 replicates; controls 0 of 9)

The first 5 entries again:

CDR-H1,CDR-H2,CDR-H3,Kd (apparent),seen in,signal with controls
GFTFDDYAPH,GISWNSGSIGYADSAK,VGRGGGYFDY,17 nM,3/3,4/9
GFTFDDYAFH,GISWNSGSIGYADAVK,VGRGGGYFDV,18 nM,3/3,3/9
GFTFDDYACH,GISWNSGSIGYADSVK,QSRGGGYFDY,540 nM,1/3,1/9
GFTFDDYAQH,GISWNSGLIGYADSVK,VGRGGGYFDY,2.9 µM,1/3,4/9
GFTFDDYADH,GISWNDGSIGWADSVK,VGRGGGYFDY,3.2 µM,1/3,1/9

Data: MIT Lincoln Laboratory AlphaSeq set, Engelhart et al. 2022, doi:10.1038/s41597-022-01779-4, as distributed in FLAb.